# From US20250270224A1, “POLYCYCLIC POLY(ADP-RIBOSE) POLYMERASE SELECTIVE INHIBITOR” (XUANZHU BIOPHARMACEUTICAL CO., LTD., priority 2022, published 2025)
# Tested on: MDA-MB-436 cells
# Assay: In-vitro cytological inhibitory activity (CelltiterGlo assay), 7 days culture
# Assay type: cell-based
# Conditions: BRCA1 mutated human breast cancer cells, CTG
# Description: The MDA-MB-436 cells were adherent cells, and the culture solution was DMEM+10% FBS+1% ITS-G+16 μg/ml glutathione.
# Cells in the logarithmic growth phase were collected and counted by a […]. The cell viability was detected by a trypan blue exclusion method, and the cell viability was kept over 90%. The cell concentration was adjusted to be in a proper range, and 90 μL of cell suspension was added into a 96-well plate respectively.
# The stock solutions of the test compounds were diluted by 10 times from 10 mM to 1 mM with DMSO, and then continuously gradiently diluted by 3 times with DMSO into a total of 9 concentrations.
# 10 μL of compound working stock solution was added into each well in a 96-well plate inoculated with cells (diluted by 10 times, the final concentration of DMSO was 0.1%). […]
# Blank control: the 96-well plate was detected and read 0 hour after the addition. […]
# A CTG reagent was thawed and the 96-well plate was equilibrated to room temperature for 30 minutes, 60 μL of reagent (Celltiter Glo assay kit) was added into each well and shaken by a shaker for 2 minutes to mix uniformly (in the dark), and the mixture was incubated at room temperature for 20 minutes (in the dark). Light signal values were read by a multi-functional microplate reader.
smiles,measurement,value
CNC(=O)c1ccc(N2CCN(Cc3cc4ccn5c4c(c3F)NC(=O)C5C)CC2)c(F)n1 (stereo not shown) [Compound 3],IC50,13.3 nM
